IC50, Ki and Kd data for one compound are collected here from ChEMBL document CHEMBL1137014, “Structure-activity study of new inhibitors of human betaine-homocysteine S-methyltransferase” (J Med Chem, 2009).

The term IC50 denotes the concentration at which inhibition is half-maximal. The term Kd denotes the equilibrium constant for the complex coming apart.

The target in experiment [1] is T1, Betaine--homocysteine S-methyltransferase 1 (Homo sapiens, UniProt Q93088).
T1 sequence (Q93088 whole entry): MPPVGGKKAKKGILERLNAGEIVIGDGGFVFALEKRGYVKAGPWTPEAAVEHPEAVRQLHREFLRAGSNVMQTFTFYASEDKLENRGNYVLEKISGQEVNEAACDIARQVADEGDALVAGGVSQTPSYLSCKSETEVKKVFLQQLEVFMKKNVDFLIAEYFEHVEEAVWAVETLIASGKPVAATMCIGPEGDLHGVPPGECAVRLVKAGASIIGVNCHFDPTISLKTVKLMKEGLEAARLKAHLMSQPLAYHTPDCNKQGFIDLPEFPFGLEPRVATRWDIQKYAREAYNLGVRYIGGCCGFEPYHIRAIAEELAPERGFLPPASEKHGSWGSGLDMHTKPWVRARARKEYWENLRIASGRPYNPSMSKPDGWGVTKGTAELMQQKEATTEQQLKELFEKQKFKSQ
Kind of experiment: Inhibition of human recombinant BHMT expressed in Escherichia coli using 2 mM betaine and 1 mM DL-homocysteine as substrate. In short, it runs like this: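 Same radiometric Dowex assay as for percent inhibition (0.2 μM enzyme, pH 7.5 K-phosphate, 37 °C, 30 min), but with 1 mM DL-homocysteine and 2 mM 14C-betaine. Ten inhibitor concentrations in duplicate per curve, IC50 by nonlinear regression. Three independent experiments, mean ± SEM.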

In experiment [2] the target is T1, Betaine--homocysteine S-methyltransferase 1. Kind of experiment: Binding affinity to human recombinant BHMT expressed in Escherichia coli using variable levels of betaine substrate by Dixon plot. The conditions noted are these: read-out: Ki(app).
Experiment [3] shares this target. Kind of experiment: Binding affinity to human recombinant BHMT expressed in Escherichia coli by intrinsic tryptophan fluorescence studies.

Consider `NC(CCSCCCCC(=O)O)C(=O)O` (stereo not drawn), for which the concentration for half-maximal inhibition (IC50) in experiment [1] was found to be 138 nM. Further, the Ki in experiment [2] was 12 nM. In experiment [3], the Kd was determined as 280 nM.
